ChEMBL document CHEMBL1141182, “Selective benzopyranone and pyrimido[2,1-a]isoquinolin-4-one inhibitors of DNA-dependent protein kinase: synthesis, structure-activity studies, and radiosensitization of a human tumor cell line in vitro” (J Med Chem, 2005)

By UniProt entry, the sequences of proteins in these tests, tags left out.
UniProt P78527, whole entry: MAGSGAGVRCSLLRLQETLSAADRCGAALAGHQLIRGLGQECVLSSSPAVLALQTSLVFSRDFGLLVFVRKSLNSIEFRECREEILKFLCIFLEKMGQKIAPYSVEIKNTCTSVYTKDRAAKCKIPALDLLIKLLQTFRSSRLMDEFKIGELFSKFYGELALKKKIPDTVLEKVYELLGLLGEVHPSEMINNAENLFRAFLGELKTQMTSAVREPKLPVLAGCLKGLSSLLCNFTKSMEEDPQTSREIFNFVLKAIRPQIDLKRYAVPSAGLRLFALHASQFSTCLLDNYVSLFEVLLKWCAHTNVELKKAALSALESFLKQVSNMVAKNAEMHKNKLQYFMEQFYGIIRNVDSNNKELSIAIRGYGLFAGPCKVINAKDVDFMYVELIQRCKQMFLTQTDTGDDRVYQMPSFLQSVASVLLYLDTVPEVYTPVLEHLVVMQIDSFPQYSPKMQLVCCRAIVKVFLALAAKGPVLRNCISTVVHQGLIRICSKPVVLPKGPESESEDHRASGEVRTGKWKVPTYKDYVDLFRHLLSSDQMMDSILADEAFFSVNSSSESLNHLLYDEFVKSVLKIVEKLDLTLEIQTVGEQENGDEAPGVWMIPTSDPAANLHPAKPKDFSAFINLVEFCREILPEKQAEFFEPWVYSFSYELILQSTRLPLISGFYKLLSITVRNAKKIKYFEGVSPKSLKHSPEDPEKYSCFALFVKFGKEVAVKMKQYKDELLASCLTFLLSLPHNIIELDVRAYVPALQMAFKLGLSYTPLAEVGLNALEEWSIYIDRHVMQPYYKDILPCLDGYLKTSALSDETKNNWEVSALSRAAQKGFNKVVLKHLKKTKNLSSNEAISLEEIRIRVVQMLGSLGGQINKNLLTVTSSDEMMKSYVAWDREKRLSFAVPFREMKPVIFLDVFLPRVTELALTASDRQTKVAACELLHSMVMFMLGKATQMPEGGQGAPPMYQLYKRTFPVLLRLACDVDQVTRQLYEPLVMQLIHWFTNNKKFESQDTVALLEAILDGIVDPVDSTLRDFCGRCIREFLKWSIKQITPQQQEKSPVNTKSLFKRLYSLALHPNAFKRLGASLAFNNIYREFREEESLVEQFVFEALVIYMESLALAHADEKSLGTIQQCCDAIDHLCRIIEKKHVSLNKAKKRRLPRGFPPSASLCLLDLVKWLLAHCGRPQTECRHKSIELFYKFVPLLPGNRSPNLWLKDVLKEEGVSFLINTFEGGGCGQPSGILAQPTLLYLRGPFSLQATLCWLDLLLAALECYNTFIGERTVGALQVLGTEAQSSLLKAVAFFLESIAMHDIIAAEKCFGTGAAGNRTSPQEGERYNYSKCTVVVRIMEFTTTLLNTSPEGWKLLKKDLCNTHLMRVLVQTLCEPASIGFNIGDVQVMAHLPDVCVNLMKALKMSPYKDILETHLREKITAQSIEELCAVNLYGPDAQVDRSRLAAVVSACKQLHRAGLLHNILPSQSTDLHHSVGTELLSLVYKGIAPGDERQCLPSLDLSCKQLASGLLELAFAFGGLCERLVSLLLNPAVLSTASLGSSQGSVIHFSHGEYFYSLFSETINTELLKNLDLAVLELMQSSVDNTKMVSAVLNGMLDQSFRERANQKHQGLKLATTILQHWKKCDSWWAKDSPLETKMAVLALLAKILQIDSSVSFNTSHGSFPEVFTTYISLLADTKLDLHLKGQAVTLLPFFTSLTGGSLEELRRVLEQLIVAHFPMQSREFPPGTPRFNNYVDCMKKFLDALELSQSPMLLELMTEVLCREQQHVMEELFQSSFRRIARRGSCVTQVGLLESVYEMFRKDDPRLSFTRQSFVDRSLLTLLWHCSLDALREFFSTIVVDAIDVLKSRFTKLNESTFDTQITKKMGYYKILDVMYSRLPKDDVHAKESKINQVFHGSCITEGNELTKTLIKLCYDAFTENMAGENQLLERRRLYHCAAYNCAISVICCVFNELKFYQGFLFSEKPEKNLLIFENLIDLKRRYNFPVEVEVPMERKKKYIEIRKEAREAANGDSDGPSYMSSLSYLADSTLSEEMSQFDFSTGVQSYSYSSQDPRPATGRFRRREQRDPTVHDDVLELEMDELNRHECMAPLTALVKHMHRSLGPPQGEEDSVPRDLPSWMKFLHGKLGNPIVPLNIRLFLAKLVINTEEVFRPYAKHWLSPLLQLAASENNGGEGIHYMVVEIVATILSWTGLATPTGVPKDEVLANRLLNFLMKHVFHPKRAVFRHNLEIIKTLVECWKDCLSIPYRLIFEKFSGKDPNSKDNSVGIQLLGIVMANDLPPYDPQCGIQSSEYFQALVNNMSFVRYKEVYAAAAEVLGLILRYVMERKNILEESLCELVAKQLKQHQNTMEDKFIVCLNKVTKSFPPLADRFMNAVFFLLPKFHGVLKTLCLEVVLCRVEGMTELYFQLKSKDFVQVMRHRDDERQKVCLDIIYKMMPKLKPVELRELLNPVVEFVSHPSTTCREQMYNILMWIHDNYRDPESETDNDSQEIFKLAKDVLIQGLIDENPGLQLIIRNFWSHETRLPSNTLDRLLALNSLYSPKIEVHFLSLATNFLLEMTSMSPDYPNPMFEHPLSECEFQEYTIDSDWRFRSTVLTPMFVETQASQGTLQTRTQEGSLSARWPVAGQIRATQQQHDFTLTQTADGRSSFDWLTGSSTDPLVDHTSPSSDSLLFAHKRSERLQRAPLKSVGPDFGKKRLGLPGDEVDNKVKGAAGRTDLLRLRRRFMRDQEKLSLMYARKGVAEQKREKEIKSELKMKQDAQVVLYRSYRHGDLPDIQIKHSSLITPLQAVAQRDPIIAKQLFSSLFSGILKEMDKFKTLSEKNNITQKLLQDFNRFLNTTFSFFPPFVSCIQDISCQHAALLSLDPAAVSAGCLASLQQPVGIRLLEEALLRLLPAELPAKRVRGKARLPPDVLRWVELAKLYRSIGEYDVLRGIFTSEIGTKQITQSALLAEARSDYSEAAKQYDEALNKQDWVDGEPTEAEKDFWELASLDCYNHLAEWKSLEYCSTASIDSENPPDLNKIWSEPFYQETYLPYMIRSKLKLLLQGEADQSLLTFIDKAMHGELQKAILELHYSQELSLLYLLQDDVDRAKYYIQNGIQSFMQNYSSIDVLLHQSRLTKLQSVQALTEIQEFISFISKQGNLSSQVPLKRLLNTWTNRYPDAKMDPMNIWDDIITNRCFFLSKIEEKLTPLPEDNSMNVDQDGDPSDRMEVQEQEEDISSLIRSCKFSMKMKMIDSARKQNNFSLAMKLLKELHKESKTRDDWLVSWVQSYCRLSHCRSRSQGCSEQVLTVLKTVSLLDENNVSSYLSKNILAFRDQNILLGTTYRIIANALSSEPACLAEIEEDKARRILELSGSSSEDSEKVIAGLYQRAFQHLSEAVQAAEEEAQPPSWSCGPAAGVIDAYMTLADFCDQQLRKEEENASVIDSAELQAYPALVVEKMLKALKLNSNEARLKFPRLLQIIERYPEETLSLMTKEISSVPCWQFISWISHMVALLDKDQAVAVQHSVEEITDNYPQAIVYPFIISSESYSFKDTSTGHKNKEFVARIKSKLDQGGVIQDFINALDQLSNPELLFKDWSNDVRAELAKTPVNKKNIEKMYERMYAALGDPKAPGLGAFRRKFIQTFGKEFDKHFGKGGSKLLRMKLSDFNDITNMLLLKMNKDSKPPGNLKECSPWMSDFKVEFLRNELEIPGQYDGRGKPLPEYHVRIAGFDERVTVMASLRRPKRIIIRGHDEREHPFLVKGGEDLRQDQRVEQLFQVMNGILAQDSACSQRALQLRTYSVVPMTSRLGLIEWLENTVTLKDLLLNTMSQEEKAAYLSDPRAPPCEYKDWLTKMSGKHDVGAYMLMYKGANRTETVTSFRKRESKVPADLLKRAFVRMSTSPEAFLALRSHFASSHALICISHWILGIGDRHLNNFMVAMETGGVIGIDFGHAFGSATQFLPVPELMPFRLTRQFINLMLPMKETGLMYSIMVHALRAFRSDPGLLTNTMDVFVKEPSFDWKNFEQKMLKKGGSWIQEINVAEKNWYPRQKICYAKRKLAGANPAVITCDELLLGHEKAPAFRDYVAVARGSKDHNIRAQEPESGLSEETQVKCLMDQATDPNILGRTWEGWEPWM

Molecular target: DNA-dependent protein kinase catalytic subunit (Homo sapiens, UniProt P78527)
Assay: Binding affinity for DNA dependent protein kinase isolated from HeLa cells; Range is 20-120
Assay type: cell-based

With `COC[C@H]1OC(=O)c2coc3c2[C@@]1(C)C1=C(C3=O)[C@@H]2CCC(=O)[C@@]2(C)C[C@H]1OC(C)=O` [WORTMANNIN] the Ki was 120 nM.
